Only a part is listed here, and it is no random draw. Some structures show a salt or complex split into parts, the way the source records it. Calls of active or inactive are those of the source.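 Rule for the calls: active = inhibition above the mean of all tested compounds plus 3 SD (cut at about 70% in these data); inactive = the rest.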
The compounds below were run against Photoreceptor-specific nuclear receptor (Homo sapiens) (UniProt Q9Y5X4) (assay: NR2E3 agonists in two-hybrid cells, primary screen, cell-based, luminescence, CHO-S, Gal4-NCOR/VP16-NR2E3 (AID 602229;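 note: 0% = DMSO with NR2E3 transfected cells and 100% = cells lacking NR2E3 construct; higher means lower luciferase signal from less NR2E3 corepressor binding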)). Settings: luciferase, at 3.98 µM, hits give high values.

By UniProt entry, the sequences of proteins in these tests, tags left out.
UniProt Q9Y5X4, whole entry: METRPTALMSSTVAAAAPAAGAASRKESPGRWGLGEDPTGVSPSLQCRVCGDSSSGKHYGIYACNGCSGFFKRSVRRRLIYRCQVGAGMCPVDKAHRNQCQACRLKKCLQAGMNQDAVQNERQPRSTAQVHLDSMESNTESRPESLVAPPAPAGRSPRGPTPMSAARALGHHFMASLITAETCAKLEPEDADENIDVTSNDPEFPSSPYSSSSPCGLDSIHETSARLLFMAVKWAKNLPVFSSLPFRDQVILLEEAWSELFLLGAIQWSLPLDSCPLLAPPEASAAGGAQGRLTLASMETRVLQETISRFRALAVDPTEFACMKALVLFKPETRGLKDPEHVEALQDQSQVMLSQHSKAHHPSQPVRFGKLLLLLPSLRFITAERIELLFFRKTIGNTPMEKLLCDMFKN

Compound | inhibition of corepressor binding
CP(=O)(Nc1ccc(Cl)cc1)Oc1ccc(F)cc1 (centres undefined) | inactive: 20.2%
COc1ccccc1OP(C)(=O)Nc1ccccc1Br (centres undefined) | inactive: 3.4%
CC(C)(C)c1ccc(OP(C)(=O)O)cc1 | inactive: -6.29%
CN(C)C(=O)c1c([N+](=O)[O-])cc([N+](=O)[O-])cc1[N+](=O)[O-] | inactive: 30.8%
COc1ccc(OP(C)(=O)Nc2ccc(Br)cc2)cc1 (centres undefined) | inactive: 14.6%
CCN(CC)CC(O)COC(=O)C(O)(c1ccccc1)C1CCCCC1 (centres undefined) | inactive: 0.82%
CCc1ccc(OP(C)(=O)Nc2cccnc2)cc1 (centres undefined) | inactive: 3%
CP(=O)(Oc1ccccc1)N1CCOC1=O (centres undefined) | inactive: -21.3%
O=C(OCCCN1CCCC1)C(O)(c1ccccc1)C1CCCCC1 (centres undefined) | inactive: 16%
COc1ccccc1OP(C)(=O)Nc1c(C)n(C)n(-c2ccccc2)c1=O (centres undefined) | inactive: -12.2%
CP(=O)(OC12CC3CC(CC(C3)C1)C2)OC12CC3CC(CC(C3)C1)C2 | inactive: -12.4%
CCOC(=O)c1ccc(NP(C)(=O)Oc2ccc(Cl)cc2)cc1 (centres undefined) | inactive: 7.8%
CCCCCCCCCCCCCCCC1C[N+](C)(C)CCOP(C)(=O)O1 (centres undefined) | inactive: -0.73%
CP(=O)(Nc1ccc(Cl)cc1Cl)Oc1ccccc1 (centres undefined) | inactive: 1.11%
CP(=O)(OCCOc1ccccc1)OCCOc1ccccc1 | inactive: -24.5%
Cc1cc(C)cc(OP(C)(=O)Nc2cccc(C(F)(F)F)c2)c1 (centres undefined) | inactive: 1.81%
O=C1C(O)=C([N+](=O)[O-])C(=O)C(O)=C1[N+](=O)[O-] | inactive: -11%
COc1ccc(OP(C)(=O)Nc2ccccc2Br)cc1 (centres undefined) | inactive: 0.74%
COc1ccccc1OP(C)(=O)Nc1ccc(C)c(C)c1 (centres undefined) | inactive: 19%
Cc1c(NP(C)(=O)Oc2ccc(C(C)C)cc2)c(=O)n(-c2ccccc2)n1C (centres undefined) | inactive: -3.85%
O=[N+]([O-])c1cc([N+](=O)[O-])c(Nc2ccccn2)c([N+](=O)[O-])c1 | inactive: -3.25%
CCc1ccc(OP(C)(=O)O)cc1 | inactive: 2.26%
COc1ccccc1OP(C)(=O)Nc1ccc(C)cc1C (centres undefined) | inactive: -1.15%
CP(=O)(Nc1ccccn1)Oc1ccccc1 (centres undefined) | inactive: -7.43%
COc1ccccc1OP(C)(=O)Nc1ccc(Br)cc1 (centres undefined) | inactive: -6.54%

Compound | inhibition of corepressor binding
CN(C)CCOC(=O)C(O)(c1ccccc1)C1CCCC1 (centres undefined) | inactive: 5.12%
COc1ccc(OP(C)(=O)Nc2ccccn2)cc1 (centres undefined) | inactive: 5.29%
O=C(OCCN1CCN(CCOCc2ccccc2)CC1)C(O)(c1ccccc1)c1ccccc1 | inactive: 6.45%
O=C(OC1CN2CCC1CC2)c1ccc([N+](=O)[O-])cc1 (centres undefined) | inactive: 16%
COc1ccc2c(c1O)-c1c(O)c(OC)cc3c1[C@H](C2)[N+](C)(C)CC3.O=[N+]([O-])c1cc([N+](=O)[O-])c([O-])c([N+](=O)[O-])c1[O-] | inactive: -3.7%
O=[N+]([O-])c1cc([N+](=O)[O-])c(Nc2ccc(Cl)cc2)c([N+](=O)[O-])c1 | inactive: 15.7%
CC(C)c1ccc(OP(C)(=O)Nc2ccc(SC(F)(F)F)cc2)cc1 (centres undefined) | inactive: 17.6%
CP(=O)(Nc1ccccc1F)Oc1ccccc1 (centres undefined) | inactive: 4.56%
CCN(CC)CCCOC(=O)C(O)(c1ccccc1)C1CCCCC1 (centres undefined) | inactive: 9.86%
Cc1c([N+](=O)[O-])cc([N+](=O)[O-])c(Br)c1[N+](=O)[O-] | inactive: -7.43%
CCCCCOc1ccc(NP(C)(=O)Oc2ccc(Cl)cc2Cl)cc1 (centres undefined) | inactive: -12.7%
O=[N+]([O-])c1cc([N+](=O)[O-])c(OC2CCCCC2O)c([N+](=O)[O-])c1 (centres undefined) | inactive: 12.9%
CP(=O)(Nc1ccccc1)Oc1ccc(F)cc1 (centres undefined) | inactive: 3.4%
CCN(CC)CCCNc1ccccc1[N+](=O)[O-].O=[N+]([O-])c1cc([N+](=O)[O-])c(O)c([N+](=O)[O-])c1 | inactive: -5.21%
COc1ccc(OP(C)(=O)Nc2ccc(SC(F)(F)F)cc2)cc1 (centres undefined) | inactive: 23.7%
CCOC(=O)c1ccc(NP(C)(=O)Oc2ccc(F)cc2)cc1 (centres undefined) | inactive: -21.9%
Cc1cc(-c2cccc3ccccc23)c(C)cn1.O=[N+]([O-])c1cc([N+](=O)[O-])c(O)c([N+](=O)[O-])c1 | inactive: -5.08%
O=[N+]([O-])c1cc([N+](=O)[O-])c(NCC2CCS(=O)(=O)C2)c([N+](=O)[O-])c1 (centres undefined) | inactive: -7.94%
O=[N+]([O-])c1ccc(OP2(=O)COCCO2)cc1 (centres undefined) | inactive: -18.1%
Cc1c(C(c2ccc3c(c2)OCO3)c2c(C)n(C)n(-c3ccccc3)c2=O)c(=O)n(-c2ccccc2)n1C.O=[N+]([O-])c1cc([N+](=O)[O-])c(O)c([N+](=O)[O-])c1 | inactive: -19.5%
COc1ccc(OP(C)(=O)Nc2cccc(Br)c2)cc1 (centres undefined) | inactive: 5.27%
COc1ccc(NP(C)(=O)Oc2ccccc2OC)cc1 (centres undefined) | inactive: -15.9%
CN(C)CCOC(=O)C(O)(c1ccccc1)C1CCCCC1 (centres undefined) | inactive: 8.91%
CP(=O)(Nc1ccc2c(c1)OCCO2)Oc1ccccc1 (centres undefined) | inactive: -19.7%
O=[N+]([O-])c1cc([N+](=O)[O-])c(C(F)(F)F)c([N+](=O)[O-])c1O | inactive: -13.9%

Compound | inhibition of corepressor binding
Cc1ccccc1NP(C)(=O)Nc1ccccc1C | inactive: -21.7%
CP(=O)(Nc1ccc(SC(F)(F)F)cc1)Oc1ccc(F)cc1 (centres undefined) | inactive: 8.12%
CCOP(C)(=S)SCC(=O)NC(C)(CC)C(=O)O (centres undefined) | inactive: -6.68%
O=[N+]([O-])c1cc([N+](=O)[O-])c(-c2cnn(-c3ccccc3)c2)c([N+](=O)[O-])c1 | inactive: 6.99%
Cc1nc2ccc3ccccc3c2s1.O=[N+]([O-])c1cc([N+](=O)[O-])c(O)c([N+](=O)[O-])c1 | inactive: -9.74%
O=[N+]([O-])c1cc([N+](=O)[O-])c(-n2nnc3ccccc32)c([N+](=O)[O-])c1 | inactive: 2.66%
CN(Cc1cccnc1)C(=O)COc1ccc(Cl)c(Cl)c1.O=[N+]([O-])c1cc([N+](=O)[O-])c(O)c([N+](=O)[O-])c1 | inactive: -0.47%
CN1CCCCC1COC(=O)C1(O)c2ccccc2CCc2ccccc21 (centres undefined) | inactive: 7.27%
COc1ccccc1OP(C)(=O)Nc1c(C)cccc1C (centres undefined) | inactive: -7.82%
CCCOc1ccc(NP(C)(=O)Oc2ccc(Cl)cc2)cc1 (centres undefined) | inactive: -5.71%
CP(=O)(Nc1ccc(SC(F)(F)F)cc1)Oc1ccccc1 (centres undefined) | inactive: 1.81%
COc1ccc(-c2ccccn2)cc1.O=[N+]([O-])c1cc([N+](=O)[O-])c(O)c([N+](=O)[O-])c1 | inactive: -16.4%
CCOC(=O)C(CC)C1=NC(C)(C)Cc2ccccc21.O=[N+]([O-])c1cc([N+](=O)[O-])c(O)c([N+](=O)[O-])c1 (centres undefined) | inactive: 4.44%
CC1=C2N=C(C=C3N=C(C(C)=C4[N-][C@@](C)([C@@H]5N=C1[C@](C)(CCC(=O)NC[C@@H](C)OP(=O)([O-])O[C@H]1[C@@H](O)[C@@H](n6cnc7cc(C)c(C)cc76)O[C@@H]1CO)[C@H]5CC(N)=O)[C@@](C)(CC(N)=O)[C@@H]4CCC(N)=O)[C@@](C)(CC(N)=O)[C@@H]3CCC(N)=O)C(C)(C)[C@@H]2CCC(N)=O.[C-]#N.[Co+3] | inactive: -4.76%
O=[N+]([O-])c1cc([N+](=O)[O-])c(Nc2nnnn2CCO)c([N+](=O)[O-])c1 | inactive: -5.7%
CC1=NCCc2c1[nH]c1ccccc21.O=[N+]([O-])c1cc([N+](=O)[O-])c(O)c([N+](=O)[O-])c1 | inactive: -14.4%
O=C(O)c1cccc(Nc2c([N+](=O)[O-])cc([N+](=O)[O-])cc2[N+](=O)[O-])c1 | inactive: -9.01%
Cc1cc(C)cc(OP(C)(=O)Nc2ccccn2)c1 (centres undefined) | inactive: -5.36%
CP(=O)(Nc1cccc(Br)c1)Oc1ccccc1 (centres undefined) | inactive: -1.44%
Cc1ccc(C)c(NP(C)(=O)Oc2ccccc2)c1 (centres undefined) | inactive: -3.67%
COc1ccccc1OP(C)(=O)Nc1cccc(Br)c1 (centres undefined) | inactive: -17.1%
Cc1cc(C)cc(OP(C)(=O)Nc2ccc(C)cc2C)c1 (centres undefined) | inactive: -7.47%
CCOC(=O)c1ccc(NP(C)(=O)Oc2cc(C)cc(C)c2)cc1 (centres undefined) | inactive: -17.8%
COc1ccccc1-c1ccccn1.O=[N+]([O-])c1cc([N+](=O)[O-])c(O)c([N+](=O)[O-])c1 | inactive: -15.8%
CCN(CC)CCCOC(=O)C(O)(c1ccccc1)c1ccccc1 | inactive: -14%

Compound | inhibition of corepressor binding
CCOC(=O)c1ccc(NP(C)(=O)Oc2ccccc2)cc1 (centres undefined) | inactive: 1.23%
Cc1ccc(NP(C)(=O)Oc2ccccc2)c(C)c1 (centres undefined) | inactive: -9.72%
COc1ccccc1OP(C)(=O)Nc1ccc(C)cc1 (centres undefined) | inactive: 3.49%
COc1ccc(OP(C)(=O)Nc2cccc(F)c2)cc1 (centres undefined) | inactive: -9.62%
COc1ccccc1OP(C)(=O)Nc1cc(Cl)ccc1C (centres undefined) | inactive: -15.3%
Cc1cc(C)cc(OP(C)(N)=O)c1 (centres undefined) | inactive: 4.97%
O=[N+]([O-])c1cc([N+](=O)[O-])c(Nc2cccnc2)c([N+](=O)[O-])c1 | inactive: -32.6%
Cc1cccc(C)c1OP(C)(N)=O (centres undefined) | inactive: 6.78%
CC(C)(C)c1ccc(OP(C)(=O)Nc2ccc(SC(F)(F)F)cc2)cc1 (centres undefined) | inactive: 4.61%
O=[N+]([O-])c1ccc2c(c1)C=Nc1ccccc1O2 | inactive: 15.4%
CP(=S)(Nn1cnnc1)Oc1ccccc1 (centres undefined) | inactive: -6.77%
COc1ccccc1OP(C)(=O)Nc1ccccc1 (centres undefined) | inactive: 16.5%
CP(=O)(Nc1ccccc1Br)Oc1ccccc1 (centres undefined) | inactive: 20.9%
CCOP(C)(=S)SCC(=O)NC(C)C(=O)O (centres undefined) | inactive: -14.1%
O=[N+]([O-])c1cc([N+](=O)[O-])c(O)c([N+](=O)[O-])c1.c1ccc(Oc2ccncc2)cc1 | inactive: 5.76%
CCOC(=O)c1ccc(NP(C)(=O)Oc2ccc(OC)cc2)cc1 (centres undefined) | inactive: -1%
CP(=O)(Nc1ccccn1)Oc1ccc(Cl)cc1 (centres undefined) | inactive: -5.56%
CP(=O)(Oc1ccccc1)OC(c1ccccc1)C(F)(F)F (centres undefined) | inactive: -12%
CP(=O)(Nc1ccc(SC(F)(F)F)cc1)Oc1ccc(Cl)cc1 (centres undefined) | inactive: -18.1%
Cc1ccc(Nc2c([N+](=O)[O-])cc([N+](=O)[O-])cc2[N+](=O)[O-])cc1 | inactive: 10%
Cc1cccc(C)c1OP(C)(=O)Nc1ccc(SC(F)(F)F)cc1 (centres undefined) | inactive: -18.9%
Cc1cc(C)cc(OP(C)(=O)Nc2ccc(SC(F)(F)F)cc2)c1 (centres undefined) | inactive: 29.9%
CP(=O)(NC(=O)Nc1ccccc1)Oc1ccccc1 (centres undefined) | inactive: 6.75%
CCc1ccc(OP(C)(=O)N2CCN(c3ccc([N+](=O)[O-])cc3)CC2)cc1 (centres undefined) | inactive: 27.7%

From PubChem BioAssay AID602229 (The Scripps Research Institute Molecular Screening Center, 2012)
